Data: PubChem BioAssay (NCATS)
Only a part is listed here, and it is no random draw. Records with an inconclusive call do not appear. Calls of active or inactive are those of the source. Calls come from the whole dose curve; as a rule, active = well fitted curve in the direction sought with a large enough effect; inconclusive = small, poorly fitted or top-dose-only effect, or another doubt; inactive = no such curve, though single readings can be large; an effect the other way counts as inactive or inconclusive.

Protein sequences, listed by entry. Tags and fused reporters are not part of them.
UniProt P04637, whole entry: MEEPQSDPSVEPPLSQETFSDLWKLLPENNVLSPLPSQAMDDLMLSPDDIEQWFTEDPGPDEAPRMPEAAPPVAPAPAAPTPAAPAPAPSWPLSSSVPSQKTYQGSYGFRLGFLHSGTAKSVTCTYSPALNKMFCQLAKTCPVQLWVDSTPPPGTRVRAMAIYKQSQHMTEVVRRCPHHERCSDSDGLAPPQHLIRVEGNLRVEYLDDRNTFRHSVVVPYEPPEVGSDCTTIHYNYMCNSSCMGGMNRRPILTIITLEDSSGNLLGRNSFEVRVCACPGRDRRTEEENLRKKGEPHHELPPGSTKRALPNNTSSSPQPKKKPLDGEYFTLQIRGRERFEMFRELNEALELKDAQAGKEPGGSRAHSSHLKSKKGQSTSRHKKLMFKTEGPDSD

Assays:
[1] = molecular target: Cellular tumor antigen p53 (Homo sapiens) (UniProt P04637); assay: Primary qHTS for small molecule compounds that upregulate eGFP-tagged delta133p53alpha (in N-terminal) cells. (AID 2060322); conditions: NCI-H358 eGFP-delta133p53alpha fluorescence, 24 h; hits give high values;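 note: cells pre-induced with doxycycline then dosed without doxycycline; 0% = DMSO vehicle and 100% = reference activator; nearly all actives have a fitted effect of over 75% in size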
[2] = BET inhibitor-based combinations targeting novel dependencies in MECOM-rearranged (r) AML: SET-2 cell line (AID 2202231); conditions: SET-2 AML cells viability, CellTiter-Glo luminescence, 48 h; hits give low values; concentration not given here;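 note: plate controls were DMSO treated cells for no effect and wells without cells for full effect; nearly all actives have a fitted effect of over 35% in size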
Procedure, shortened: (§1)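 Cells were plated at 500 per well and exposed to an 11-point dose series of each drug for 48 hr. Viability was measured by CellTiter-Glo luminescence, normalized to DMSO and empty-well controls, and summarized as AUC and per-cell-line Z-AUC.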

[3] = BET inhibitor-based combinations targeting novel dependencies in MECOM-rearranged (r) AML: OCI-AML3 cell line (AID 2202232); conditions: CellTiter-Glo luminescence, 48 h; at 46 µM (top of the series);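 note: plate controls were DMSO vehicle wells for no effect and wells without cells for full effect; nearly all actives have a fitted effect of over 35% in size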
Procedure, shortened: as §1

[4] = BET inhibitor-based combinations targeting novel dependencies in MECOM-rearranged (r) AML: MV-4-11 cell line (AID 2202233); conditions: MV-4-11 AML viability, CellTiter-Glo luminescence, 48 h; at 46 µM (top of the series);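 note: plate controls were DMSO for no effect and blank wells for full effect; nearly all actives have a fitted effect of over 45% in size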
Procedure, shortened: (§2)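 Activity is given as area under the curve and as Z-AUC, mean-centred within each cell line. It comes from 11-point dose curves normalized to DMSO and empty wells. CellTiter-Glo luminescence was read after 48 hr drug exposure of 500 cells/well.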

[5] = BET inhibitor-based combinations targeting novel dependencies in MECOM-rearranged (r) AML: HNT-34 cell line (AID 2202234); conditions: HNT-34 AML viability, CellTiter-Glo luminescence, 48 h; at 46 µM (top of the series);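 note: plate controls were vehicle wells for no effect and cell-free wells for full effect; nearly all actives have a fitted effect of over 35% in size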
Procedure, shortened: as §2

[6] = BET inhibitor-based combinations targeting novel dependencies in MECOM-rearranged (r) AML: UCSD-AML1 cell line (AID 2202235); conditions: UCSD-AML1 AML cells viability, CellTiter-Glo, 48 h; at 46 µM (top of the series);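 note: plate controls were DMSO vehicle wells for no effect and blank wells for full effect; nearly all actives have a fitted effect of over 40% in size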
Procedure, shortened: as §2

[7] = BET inhibitor-based combinations targeting novel dependencies in MECOM-rearranged (r) AML: AML-191 cell line (AID 2202236;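 note: plate controls were vehicle wells for no effect and wells without cells for full effect; nearly all actives have a fitted effect of over 35% in size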); conditions: AML-191 viability, CellTiter-Glo luminescence, 48 h; at 46 µM (top of the series)
Procedure, shortened: as §1

[8] = BET inhibitor-based combinations targeting novel dependencies in MECOM-rearranged (r) AML: AML-194 cell line (AID 2202237;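 note: plate controls were vehicle wells for no effect and wells without cells for full effect; nearly all actives have a fitted effect of over 40% in size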); conditions: AML-194 (MECOM-r AML) viability, CellTiter-Glo, 48 h; at 46 µM (top of the series)
Procedure, shortened: as §1

[9] = molecular target: Aldehyde dehydrogenase, mitochondrial (Homo sapiens) (UniProt P05091); assay: qHTS for Inhibitors of the Aldehyde Dehydrogenase Family (ALDH2) Primary screen (AID 2061308); conditions: ALDH2 enzyme inhibition qHTS, 1536-well; at 56 µM (top of the series);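 note: plate controls were vehicle for no effect and reference inhibitor for full effect; nearly all actives have a fitted effect of over 55% in size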
[10] = molecular target: Retinaldehyde dehydrogenase 3 (Homo sapiens) (UniProt P47895); assay: qHTS for Inhibitors of the Aldehyde Dehydrogenase Family (ALDH1A3) Validation screen (AID 2061312); conditions: ALDH1A3 enzyme inhibition qHTS validation, fluorescence; at 84.7 µM (top of the series); note: % is set by controls: 0 for no effect and ±100 for the full control effect; nearly all actives have a fitted effect of over 45% in size
[11] = molecular target: Retinaldehyde dehydrogenase 3 (Homo sapiens) (UniProt P47895); assay: qHTS for Inhibitors of the Aldehyde Dehydrogenase Family (ALDH1A3) Primary screen (AID 2061315);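 note: plate controls were DMSO vehicle for no effect and reference inhibitor for full effect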; conditions: S. pombe CHP2027 cells, fluorescence laser cytometry, 18 h; at 56 µM (top of the series)

CCC(=O)N(c1ccccc1)C1CCNCC1
inactive: activation [1] -26.6%

CCOC(=O)N1CCC(=O)CC1
inactive: activation [1] 5.02%

CCOC(=O)C(=O)CBr
inactive: activation [1] -8.91% | viability [2] 86.9% | viability (% of control) [3] 106% | viability, % of control [4] 105% | viability (% of control) [5] 99.9% | viability (% of control) [6] 106% | viability (% of control) [7] 112% | viability (% of control) [8] 109%

CC(=O)N1CCc2ccc(N(C(=O)/C=C/c3cccc(C#N)c3)C3CCN(CCC4CCCC4)CC3)cc21
inactive: activation [1] 16.2% | activity change, negative = inhibition [9] 1.77% | activity change, negative = inhibition [10] 49.7% | activity change, negative = inhibition [11] 1.89%
